Measured values: article PMC2674222 (Biochemistry, 2009)

Amino acid sequences for entries named in this document (tags omitted). A change or cut given only in a name is not applied to a line headed by its entry.
UniProt P00491: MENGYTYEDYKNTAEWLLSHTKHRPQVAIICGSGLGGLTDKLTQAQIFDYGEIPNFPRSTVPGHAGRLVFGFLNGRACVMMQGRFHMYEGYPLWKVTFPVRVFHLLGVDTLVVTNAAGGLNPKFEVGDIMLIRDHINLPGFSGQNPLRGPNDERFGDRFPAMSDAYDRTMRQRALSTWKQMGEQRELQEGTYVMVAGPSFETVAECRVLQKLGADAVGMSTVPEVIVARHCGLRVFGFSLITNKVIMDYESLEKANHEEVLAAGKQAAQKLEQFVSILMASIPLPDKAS

Molecular target: T1, F159W-Leuko-PNP (Homo sapiens, UniProt P00491, F159W/W16Y/W178Y/W94Y)
T1 sequence (P00491 1-289 W16Y/W94Y/F159W/W178Y): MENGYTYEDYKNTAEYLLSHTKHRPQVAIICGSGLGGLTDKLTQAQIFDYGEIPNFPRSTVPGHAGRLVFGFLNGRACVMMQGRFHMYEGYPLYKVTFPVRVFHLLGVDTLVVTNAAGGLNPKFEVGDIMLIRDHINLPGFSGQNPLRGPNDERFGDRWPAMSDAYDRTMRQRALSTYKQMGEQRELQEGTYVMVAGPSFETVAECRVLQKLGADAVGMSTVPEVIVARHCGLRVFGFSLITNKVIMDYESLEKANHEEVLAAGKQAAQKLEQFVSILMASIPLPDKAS
Conditions: read-out: Ki* (slow-onset tight binding constant); 50 mM KH2PO4, pH 7.4, 25 °C; ∼8 mM inosine

Substance | Ki [nM]
4'-deaza-1'-aza-2'-deoxy-1'-(9-methylene)-Immucillin-H [DADMe-ImmH] | 0.06 ± 0.002
Immucillin-H [ImmH] | 2.1
